{"sequences": {"note": "Protein sequences, listed by entry. Tags and fused reporters are not part of them.", "UniProt P21397, whole entry": "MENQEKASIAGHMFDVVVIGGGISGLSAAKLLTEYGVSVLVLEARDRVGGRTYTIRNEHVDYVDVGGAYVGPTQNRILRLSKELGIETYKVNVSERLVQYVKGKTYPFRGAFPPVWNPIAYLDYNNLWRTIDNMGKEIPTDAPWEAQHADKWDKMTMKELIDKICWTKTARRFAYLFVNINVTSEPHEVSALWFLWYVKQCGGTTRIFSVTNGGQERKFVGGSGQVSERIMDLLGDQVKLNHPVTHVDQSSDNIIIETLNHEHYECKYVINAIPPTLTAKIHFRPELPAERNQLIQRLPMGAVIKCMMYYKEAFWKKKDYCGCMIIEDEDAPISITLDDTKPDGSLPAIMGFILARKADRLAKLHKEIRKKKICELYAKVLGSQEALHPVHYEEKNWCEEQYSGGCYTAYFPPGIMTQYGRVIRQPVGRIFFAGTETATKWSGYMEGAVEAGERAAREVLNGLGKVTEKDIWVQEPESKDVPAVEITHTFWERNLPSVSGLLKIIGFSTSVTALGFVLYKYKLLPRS"}, "source": "paper PMC8146505", "about": "“Enantioselective Interactions of Anti-Infective 8-Aminoquinoline Therapeutics with Human Monoamine Oxidases A and B” (Pharmaceuticals, 2021)", "molecular_target": "T1, recombinant human MAO-A (Homo sapiens, UniProt P21397)", "T1 construct": "purchased BD Biosciences (Bedford, MA, USA)", "test": "In vitro MAO inhibition assay (kynuramine oxidative deamination), IC50", "assay_type": "biochemical", "method": "A fixed concentration of kynuramine substrate and varying concentrations of the test compounds were used to determine the IC50 values. Kynuramine concentrations for MAO-A and -B assays were 80 μM and 50 μM, respectively. The concentrations of PQ and NPC1161 enantiomers varied from 0.1 μM to 200 μM, for the rhMAO-A and -B enzyme activity inhibition. The test compounds were dissolved in DMSO, diluted in the buffer solution just before the assay, and pre-incubated with the enzyme (MAO-A (5 μg/mL) or -B (12.5 μg/mL)) for 10 min at 37 °C. […] The enzymatic reactions were initiated by the addition of the substrate (kynuramine 80 and 50 μM, for MAO-A and -B, respectively) and incubated for 20 min at 37 °C. […] The formation of 4-hydroxyquinoline (the enzyme reaction end product) was recorded fluorometrically on a SpectraMax M5 fluorescence plate reader (Molecular Devices, Sunnyvale, CA, USA) with 320 nm excitation and 380 nm emission wavelengths, using the Soft MaxPro-6 program. The inhibition of enzyme activity was calculated in terms of product formation as a percentage of corresponding controls (enzyme–substrate reaction without inhibitors). Assay controls, to define the interference of the test compounds with the fluorescence measurements, were set up simultaneously, and the enzyme or substrate was added after stopping the reaction. […]"}
{"smiles": "COc1cc(NC(C)CCCN)c2ncccc2c1", "note": "(racemic) [(RS)-(±)-Primaquine, Primaquine]", "values": [{"measurement": "Selectivity for inhibition of MAO-A versus MAO-B", "value": 1.2, "unit": "fold"}]}
